Data on six compounds can be found in patent US7632933B2, “Corticotropin releasing factor 2 receptor agonists” (priority 2002, dated 2009).

The target in test [1] is T1, CRF2R (Homo sapiens, UniProt Q13324).
T1 sequence (Q13324 1-411): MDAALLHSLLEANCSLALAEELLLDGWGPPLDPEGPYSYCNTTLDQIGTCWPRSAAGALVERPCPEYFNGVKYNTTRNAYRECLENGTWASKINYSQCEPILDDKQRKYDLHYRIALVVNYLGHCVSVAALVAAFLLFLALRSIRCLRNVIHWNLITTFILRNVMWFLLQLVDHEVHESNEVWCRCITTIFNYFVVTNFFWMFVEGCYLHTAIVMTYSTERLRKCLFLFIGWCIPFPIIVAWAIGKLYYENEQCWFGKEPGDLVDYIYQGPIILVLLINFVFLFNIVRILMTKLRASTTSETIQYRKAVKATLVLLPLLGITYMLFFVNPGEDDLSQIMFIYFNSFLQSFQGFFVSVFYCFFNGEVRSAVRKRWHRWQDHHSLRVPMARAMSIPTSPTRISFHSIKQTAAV
In words: CRF2R agonist activity (EC50 and Emax), called comparative CRF binding. The format is cell-based. The note with it: CRF2R EC50 (nM), CRF2R. The method in brief: (§1)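 Agonism is scored by Gαs-driven cAMP rise in cells carrying CRF1R or CRF2R alone, with vehicle-treated cells as control.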

For test [2], the target named is T2, CRF1R (Homo sapiens, UniProt P34998).
T2 sequence (P34998 24-415): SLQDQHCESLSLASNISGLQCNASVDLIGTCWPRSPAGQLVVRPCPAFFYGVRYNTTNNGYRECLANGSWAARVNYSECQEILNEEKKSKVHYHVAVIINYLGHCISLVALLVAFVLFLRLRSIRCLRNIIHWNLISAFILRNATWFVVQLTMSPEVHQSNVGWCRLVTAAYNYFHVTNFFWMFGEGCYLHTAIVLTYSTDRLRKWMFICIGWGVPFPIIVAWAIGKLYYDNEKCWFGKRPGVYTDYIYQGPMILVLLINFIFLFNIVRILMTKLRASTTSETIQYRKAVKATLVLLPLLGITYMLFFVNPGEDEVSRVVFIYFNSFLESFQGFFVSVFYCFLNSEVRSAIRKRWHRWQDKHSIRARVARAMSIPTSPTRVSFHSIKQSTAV
In words: CRF1R agonist activity (EC50 and Emax), called comparative CRF binding. The format is cell-based. The note with it: CRF1R EC50 (nM), CRF1R. The method in brief:
as §1

Structures are written as SMILES.

As a reminder, the EC50 is the concentration that produces a half-maximal response. For `CC[C@H](C)[C@H](NC(=O)[C@@H](NC(=O)[C@H](C)NC(=O)[C@H](CC(C)C)NC(=O)[C@H](CC(C)C)NC(=O)[C@H](CC(C)C)NC(=O)[C@H](C)NC(=O)[C@H](CC(N)=O)NC(=O)[C@H](CC(N)=O)NC(=O)[C@H](C)NC(=O)[C@H](C)NC(=O)[C@H](CCC(N)=O)NC(=O)[C@H](CCC(N)=O)NC(=O)[C@H](CCCCN)NC(=O)[C@H](CCC(=O)O)NC(=O)[C@H](CCCCN)NC(=O)[C@H](CCC(=O)O)NC(=O)[C@H](CCC(N)=O)NC(=O)[C@H](CCCCN)NC(=O)[C@H](CCC(=O)O)NC(=O)[C@@H](NC(=O)[C@H](CCC(=O)O)NC(=O)[C@@H](NC(=O)[C@H](CCSC)NC(=O)[C@H](CCCCN)NC(=O)[C@H](CCCNC(=N)N)NC(=O)[C@H](CC(C)C)NC(=O)[C@H](CC(C)C)NC(=O)[C@H](Cc1ccc(O)cc1)NC(=O)[C@H](CC(C)C)NC(=O)[C@@H]1CCCN1C(=O)[C@H](CC(C)C)NC(=O)[C@H](CC(=O)O)NC(=O)[C@@H](NC(=O)[C@H](CO)NC(=O)[C@@H](NC(=O)[C@@H]1CCCN1C(=O)[C@@H]1CCCN1C(=O)CNC(=O)[C@@H]1CCC(=O)N1)[C@@H](C)CC)[C@@H](C)CC)[C@@H](C)CC)[C@@H](C)CC)[C@@H](C)O)C(N)=O` [compound 245], the figures for the half-maximal effective concentration (EC50) in test [1] and in test [2] were 7.5 nM and 381 nM, respectively.

As for `CC[C@H](C)[C@H](NC(=O)[C@H](CC(N)=O)NC(=O)[C@H](C)NC(=O)[C@H](CC(C)C)NC(=O)[C@H](CC(C)C)NC(=O)[C@H](CC(N)=O)NC(=O)[C@H](C)NC(=O)[C@H](CC(N)=O)NC(=O)[C@H](CC(N)=O)NC(=O)[C@H](C)NC(=O)[C@H](C)NC(=O)[C@H](CCC(N)=O)NC(=O)[C@H](CCC(N)=O)NC(=O)[C@H](CCCCN)NC(=O)[C@H](CCC(=O)O)NC(=O)[C@H](CCCCN)NC(=O)[C@H](CCC(=O)O)NC(=O)[C@H](CCC(N)=O)NC(=O)[C@H](CCCCN)NC(=O)[C@H](CCC(=O)O)NC(=O)[C@@H](NC(=O)[C@H](CCC(=O)O)NC(=O)[C@@H](NC(=O)[C@@H](NC(=O)[C@H](CCCCN)NC(=O)[C@H](CCCNC(=N)N)NC(=O)[C@H](CC(C)C)NC(=O)[C@H](CC(C)C)NC(=O)[C@H](CCC(N)=O)NC(=O)[C@H](Cc1ccccc1)NC(=O)[C@@H]1CCCN1C(=O)[C@H](CC(C)C)NC(=O)[C@H](CC(=O)O)NC(=O)[C@@H](NC(=O)[C@H](CO)NC(=O)[C@@H](NC(=O)[C@@H]1CCCN1C(=O)[C@@H]1CCCN1C(=O)CNC(=O)[C@@H]1CCC(=O)N1)[C@@H](C)CC)[C@@H](C)CC)C(C)C)[C@@H](C)CC)[C@@H](C)CC)C(N)=O` [compound 275], the concentration for a half-maximal effect (EC50) in test [1] was 46.6 nM; in test [2] it was no less than 1000 nM.

Consider `CC[C@H](C)[C@H](NC(=O)[C@@H](NC(=O)[C@H](C)NC(=O)[C@H](CC(C)C)NC(=O)[C@H](CC(C)C)NC(=O)[C@H](CC(C)C)NC(=O)[C@H](C)NC(=O)[C@H](CC(N)=O)NC(=O)[C@H](CC(N)=O)NC(=O)[C@H](C)NC(=O)[C@H](C)NC(=O)[C@H](CCC(N)=O)NC(=O)[C@H](CCC(N)=O)NC(=O)[C@H](CCCCN)NC(=O)[C@H](CCC(=O)O)NC(=O)[C@H](CCCCN)NC(=O)[C@H](CCC(=O)O)NC(=O)[C@H](CCC(N)=O)NC(=O)[C@H](CCCCN)NC(=O)[C@H](CCC(=O)O)NC(=O)[C@@H](NC(=O)[C@H](CCC(=O)O)NC(=O)[C@@H](NC(=O)[C@@H](NC(=O)[C@H](CCCCN)NC(=O)[C@H](CCCNC(=N)N)NC(=O)[C@H](CC(C)C)NC(=O)[C@H](CC(C)C)NC(=O)[C@H](Cc1ccccc1)NC(=O)[C@@H](NC(=O)[C@@H]1CCCN1C(=O)[C@H](CC(C)C)NC(=O)[C@H](CC(=O)O)NC(=O)[C@@H](NC(=O)[C@H](CO)NC(=O)[C@@H](NC(=O)[C@@H]1CCCN1C(=O)[C@@H]1CCCN1C(=O)CNC(=O)[C@@H]1CCC(=O)N1)[C@@H](C)CC)[C@@H](C)CC)[C@@H](C)CC)C(C)C)[C@@H](C)CC)[C@@H](C)CC)[C@@H](C)O)C(N)=O` [compound 280], for which the values for the EC50 in test [1] and in test [2] were no less than 100 nM and no less than 1000 nM, respectively.

For `CC[C@H](C)[C@H](NC(=O)[C@H](CCCNC(=N)N)NC(=O)[C@H](C)NC(=O)[C@H](CC(C)C)NC(=O)[C@H](CC(C)C)NC(=O)[C@H](CCCNC(=N)N)NC(=O)[C@H](C)NC(=O)[C@H](CC(N)=O)NC(=O)[C@H](CC(N)=O)NC(=O)[C@H](C)NC(=O)[C@H](C)NC(=O)[C@H](CCC(N)=O)NC(=O)[C@H](CCC(N)=O)NC(=O)[C@H](CCCCN)NC(=O)[C@H](CCC(=O)O)NC(=O)[C@H](CCCCN)NC(=O)[C@H](CCC(=O)O)NC(=O)[C@H](CCC(N)=O)NC(=O)[C@H](CCCCN)NC(=O)[C@H](CCC(=O)O)NC(=O)[C@@H](NC(=O)[C@H](CCC(=O)O)NC(=O)[C@@H](NC(=O)[C@@H](NC(=O)[C@H](CCCCN)NC(=O)[C@H](CCCNC(=N)N)NC(=O)[C@H](CC(C)C)NC(=O)[C@H](CC(C)C)NC(=O)[C@H](Cc1ccccc1)NC(=O)[C@@H](NC(=O)[C@@H]1CCCN1C(=O)[C@H](CC(C)C)NC(=O)[C@H](CC(=O)O)NC(=O)[C@@H](NC(=O)[C@H](CO)NC(=O)[C@@H](NC(=O)[C@@H]1CCCN1C(=O)[C@@H]1CCCN1C(=O)CNC(=O)[C@@H]1CCC(=O)N1)[C@@H](C)CC)[C@@H](C)CC)[C@@H](C)CC)C(C)C)[C@@H](C)CC)[C@@H](C)CC)C(N)=O` [compound 281], the EC50 is no less than 100 nM in test [1] and no less than 1000 nM in test [2].

Consider `CC[C@H](C)[C@H](NC(=O)[C@@H](NC(=O)[C@H](CC(=O)O)NC(=O)[C@H](CC(C)C)NC(=O)[C@H](CC(C)C)NC(=O)[C@H](CC(C)C)NC(=O)[C@H](CCCNC(=N)N)NC(=O)[C@H](CC(N)=O)NC(=O)[C@H](CC(N)=O)NC(=O)[C@H](C)NC(=O)[C@H](C)NC(=O)[C@H](CCC(N)=O)NC(=O)[C@H](CCC(N)=O)NC(=O)[C@H](CCCCN)NC(=O)[C@H](CCC(=O)O)NC(=O)[C@H](CCCCN)NC(=O)[C@H](CCC(=O)O)NC(=O)[C@H](CCC(N)=O)NC(=O)[C@H](CCCCN)NC(=O)[C@H](CCC(=O)O)NC(=O)[C@@H](NC(=O)[C@H](CCC(=O)O)NC(=O)[C@@H](NC(=O)[C@@H](NC(=O)[C@H](CCCCN)NC(=O)[C@H](CCCNC(=N)N)NC(=O)[C@H](CC(C)C)NC(=O)[C@H](CC(C)C)NC(=O)[C@H](CCC(N)=O)NC(=O)[C@H](Cc1ccc(O)cc1)NC(=O)[C@@H]1CCCN1C(=O)[C@H](CC(C)C)NC(=O)[C@H](CC(=O)O)NC(=O)[C@@H](NC(=O)[C@H](CO)NC(=O)[C@@H](NC(=O)[C@@H]1CCCN1C(=O)[C@@H]1CCCN1C(=O)CNC(=O)[C@@H]1CCC(=O)N1)[C@@H](C)CC)[C@@H](C)CC)C(C)C)[C@@H](C)CC)[C@@H](C)CC)[C@@H](C)O)C(N)=O` [compound 283], for which the EC50 in test [1] was determined as 10.6 nM; in test [2], 635 nM.

With `CC[C@H](C)[C@H](NC(=O)[C@@H](NC(=O)[C@H](CC(=O)O)NC(=O)[C@H](CC(C)C)NC(=O)[C@H](CC(C)C)NC(=O)[C@H](CC(C)C)NC(=O)[C@H](CCCNC(=N)N)NC(=O)[C@H](CC(N)=O)NC(=O)[C@H](CC(N)=O)NC(=O)[C@H](C)NC(=O)[C@H](C)NC(=O)[C@H](CCC(N)=O)NC(=O)[C@H](CCC(N)=O)NC(=O)[C@H](CCCCN)NC(=O)[C@H](CCC(=O)O)NC(=O)[C@H](CCCCN)NC(=O)[C@H](CCC(=O)O)NC(=O)[C@H](CCC(N)=O)NC(=O)[C@H](CCCCN)NC(=O)[C@H](CCC(=O)O)NC(=O)[C@@H](NC(=O)[C@H](CCC(=O)O)NC(=O)[C@@H](NC(=O)[C@@H](NC(=O)[C@H](CCCCN)NC(=O)[C@H](CCCNC(=N)N)NC(=O)[C@H](CC(C)C)NC(=O)[C@H](CC(C)C)NC(=O)[C@H](Cc1c[nH]c2ccccc12)NC(=O)[C@@H](NC(=O)[C@@H]1CCCN1C(=O)[C@H](CC(C)C)NC(=O)[C@H](CC(=O)O)NC(=O)[C@@H](NC(=O)[C@H](CO)NC(=O)[C@@H](NC(=O)[C@@H]1CCCN1C(=O)[C@@H]1CCCN1C(=O)CNC(=O)[C@@H]1CCC(=O)N1)[C@@H](C)CC)[C@@H](C)CC)[C@@H](C)O)C(C)C)[C@@H](C)CC)[C@@H](C)CC)[C@@H](C)O)C(N)=O` [compound 284], the EC50 in test [1] is no less than 100 nM; in test [2] it was no less than 1000 nM.
